Reference: patent US5807846A, “Phosphonamide ACAT inhibitors” (Warner-Lambert Company, priority 1997, dated 1998)

Tests used:
[1] = system: acyl-CoA:cholesterol acyltransferase (ACAT); test: in vitro ACAT inhibition (LAI): radiolabeled cholesterol oleate formed from radiolabeled oleic acid in rat liver microsomes; assay type: biochemical; conditions: read-out: LAI (IC50, concentration of test compound required to inhibit the activity of the enzyme by 50%)
cholesterol = test: APCC in vivo screen: rats on high fat, high cholesterol diet (PCC), blood cholesterol analysis; design: species or system male Sprague-Dawley rats; conditions: dose 10 mg/kg, single dose at 4 PM, PCC diet overnight, blood cholesterol at 8 AM

In the case of `COP(=O)(NC(=O)Nc1c(C(C)C)cccc1C(C)C)Oc1c(C(C)C)cccc1C(C)C` (centres unmarked), the IC50 [1] is reported as 950 nM and the APCC (cholesterol) is reported as -33.
